A word on the Ki: it is a measure of affinity in units of concentration, obtained from inhibition or displacement. A low value points to tighter binding.

These results are taken from ChEMBL document CHEMBL1949581, “Anion inhibition studies of an α-carbonic anhydrase from the living fossil Astrosclera willeyana” (Bioorg Med Chem Lett, 2012).

This test has as its target T1, Astrosclerin-3 (Astrosclera willeyana, UniProt A6YCJ1).
T1 sequence (A6YCJ1 whole entry): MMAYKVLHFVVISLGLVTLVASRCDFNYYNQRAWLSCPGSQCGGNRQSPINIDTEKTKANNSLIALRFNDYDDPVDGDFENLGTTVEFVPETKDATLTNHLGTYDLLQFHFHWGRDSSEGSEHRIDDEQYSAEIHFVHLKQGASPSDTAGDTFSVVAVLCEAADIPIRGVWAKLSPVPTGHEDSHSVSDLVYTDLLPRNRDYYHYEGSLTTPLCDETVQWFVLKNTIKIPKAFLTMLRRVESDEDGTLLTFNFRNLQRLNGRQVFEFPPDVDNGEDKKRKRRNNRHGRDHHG
Briefly: biochemical. Format: cell-based.

Molecules are shown by their SMILES.

`N#C[S-].[Na+]` [THIOCYANATE SODIUM] gave an inhibition constant (Ki) of 670 µM.
